Yeast mating assay 2: variants of the scFv Ab-95

Values reported by Engelhart et al. 2022, doi:10.1038/s41597-022-01779-4 (FLAb copy).

Antigen: PDVDLGDISGINAS, a 14-residue peptide of the SARS-CoV-2 spike HR2 region.

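In library AAYL52, one, two or three CDR residues were substituted; doubles and triples were drawn at random. The assay is AlphaSeq: two haploid yeast populations carry antibody and antigen on their surface. The frequency of each diploid, read from paired DNA barcodes, reflects how well the two displayed proteins bind. Each replicate has its own calibration line, from reference interactions of the BCL2 family. The assay was run in three technical replicates.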

Parent scFv Ab-95: VH joined to VL by three GGGGS repeats. Changes lie in the light chain CDRs alone.
VH: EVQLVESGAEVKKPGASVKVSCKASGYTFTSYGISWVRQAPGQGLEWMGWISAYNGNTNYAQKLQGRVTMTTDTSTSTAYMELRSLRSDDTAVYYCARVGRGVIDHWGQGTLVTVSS
VL: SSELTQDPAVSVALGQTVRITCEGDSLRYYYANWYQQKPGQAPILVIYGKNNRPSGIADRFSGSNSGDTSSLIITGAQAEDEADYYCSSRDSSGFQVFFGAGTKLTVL

Positions count from residue 1 of the parent VL; D25N puts N in place of D.
Scale: log10 of Kd in nM, estimated from mating counts; low values are strong binders.
A mean of the replicates is given; it leaves out those without a signal.
Where no diploid with the target was found in any replicate, the entry reads "nd": below detection, most likely a poor binder, though not proof of it.
The list is sorted by this average, lowest first, undetected variants last.
For reference, the parent read 2.31 as the reference entry and 2.25 as a member of this library.
Empty control strains, which show no peptide, gave a signal in 28% of pairings with library AAYL52; the median was 3.91 and 95% of these signals were weaker than 2.90. No background was subtracted.

mean, log10 nM	replicates with signal	changes
1.40	3 of 3	D25N/Y30R/N52T
1.48	3 of 3	D25F/K50D/S55D
1.76	3 of 3	D25T/S93L/F98W
1.78	3 of 3	E23R/R28L/N52T
2.00	3 of 3	D25G/R28N/K50R
2.07	3 of 3	G24S/Y31N/Q96A
2.23	3 of 3	R53K/S92D/F95C
2.28	3 of 3	K50R/N52I/F98E
2.45	3 of 3	D25Q/R53S
2.57	3 of 3	S26C/N52I/S55I
2.61	3 of 3	Y29D/S93E/F95S
2.65	3 of 3	Y31L/N52W/S92E
2.77	3 of 3	Y31G/R90Y/F98W
2.77	3 of 3	Y30W/F98N
2.78	3 of 3	D25Y/S89T/D91V
2.82	1 of 3	G24D/S92R/V97G
2.84	3 of 3	S55P/S89F/G94W
2.87	1 of 3	R53D/D91C/S92Y
2.89	2 of 3	S26H/S92K/F95I
2.93	3 of 3	E23Y/Y29E/N51A
3.10	3 of 3	Y29W/S92C/Q96L
3.19	1 of 3	R90Q/F95S/Q96F
3.20	3 of 3	K50R/D91G/V97T
3.27	3 of 3	A32M/K50D/F95C
3.29	2 of 3	G24M/S93G/F95D
3.31	3 of 3	R28Q/S55P/V97T
3.31	2 of 3	R28I/S55G/V97E
3.36	3 of 3	K50I/R90G/D91N
3.42	3 of 3	Y30A/Y31K/N33W
3.42	3 of 3	L27E/Y29D/N51S
3.55	2 of 3	R53S/R90M/S92H
3.56	2 of 3	G24H/N33K/N52F
3.59	1 of 3	G49F/S55H/F95H
3.60	3 of 3	E23F/K50R/R53T
3.62	2 of 3	L27N/Y30M/F95G
3.63	2 of 3	G49I/K50F/F98M
3.67	2 of 3	E23Y/R53G/S93D
3.74	1 of 3	N51I/P54C/G94I
3.78	2 of 3	N52A/S88T/S93P
3.88	2 of 3	S89F/G94L/V97E
3.92	3 of 3	L27A/D91A/G94F
3.93	2 of 3	Y31N/R90N/Q96E
3.94	1 of 3	Y30F/R53I/S92I
4.07	2 of 3	L27G/R28A/R90W
4.16	2 of 3	L27P/N52D/G94C
4.20	2 of 3	Y31R/S89M/S93A
4.22	2 of 3	S26R/P54W/S93G
4.32	3 of 3	G24K/Y30V/Q96G
4.37	3 of 3	G24K/D91F/S93N
4.61	1 of 3	A32H/R53P/S88P
4.61	1 of 3	L27G/R28Q/S93V
4.69	1 of 3	L27P/P54C
4.85	1 of 3	Y29I/N51Q/F95G
5.04	2 of 3	G24N/N51I/S92G
5.17	1 of 3	N52E/S55Q/S88W
5.35	1 of 3	Y31I/S55C/S93F
nd	0 of 3	N51E/D91P
nd	0 of 3	N52M/P54F/R90P
nd	0 of 3	S26M/S89I/Q96M
nd	0 of 3	R53D/S89V/S92V
nd	0 of 3	L27V/R28V/D91A
nd	0 of 3	E23C/R28I/D91V
nd	0 of 3	Y30M/P54D/D91T

Again, the first 6 entries without any signal:

changes	mean, log10 nM	replicates with signal
N51E/D91P	nd	0 of 3
N52M/P54F/R90P	nd	0 of 3
S26M/S89I/Q96M	nd	0 of 3
R53D/S89V/S92V	nd	0 of 3
L27V/R28V/D91A	nd	0 of 3
E23C/R28I/D91V	nd	0 of 3